The text below walks through data of paper doi:10.1101/2025.02.07.636106.

The target in one assay is T1, Kelch-like protein 9 (UniProt Q9P2J3).
T1 sequence: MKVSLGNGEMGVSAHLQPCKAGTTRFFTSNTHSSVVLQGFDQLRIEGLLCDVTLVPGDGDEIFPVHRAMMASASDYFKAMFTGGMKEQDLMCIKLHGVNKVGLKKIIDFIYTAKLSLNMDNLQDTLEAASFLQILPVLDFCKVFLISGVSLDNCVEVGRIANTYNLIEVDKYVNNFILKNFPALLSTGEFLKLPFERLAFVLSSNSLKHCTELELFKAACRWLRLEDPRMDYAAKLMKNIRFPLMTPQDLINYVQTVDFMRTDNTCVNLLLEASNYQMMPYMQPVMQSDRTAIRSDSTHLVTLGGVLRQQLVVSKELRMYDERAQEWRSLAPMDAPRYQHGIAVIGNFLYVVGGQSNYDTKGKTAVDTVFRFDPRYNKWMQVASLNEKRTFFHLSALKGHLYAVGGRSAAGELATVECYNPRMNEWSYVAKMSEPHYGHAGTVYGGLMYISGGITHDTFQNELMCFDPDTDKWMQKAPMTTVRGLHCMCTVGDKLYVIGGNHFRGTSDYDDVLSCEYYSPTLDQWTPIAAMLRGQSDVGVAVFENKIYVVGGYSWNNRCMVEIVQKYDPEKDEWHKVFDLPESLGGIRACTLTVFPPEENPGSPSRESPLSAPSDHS
Put plainly: co-fractionation; co-fractionation.

Assay [1] concerns the target Vacuolar protein sorting-associated protein 29 (UniProt Q9UBQ0). Put plainly: co-fractionation; co-fractionation.
A further assay has as its target Obg-like ATPase 1 (UniProt Q9NTK5). Put plainly: cross-link between two proteins; cross-linking mass spectrometry.

The other results are listed elsewhere or left out.

With Cullin-3, Q13618, in the assay with Kelch-like protein 9, the “listed as a hit” value is listed as “yes”.
With “Vacuolar protein sorting-associated protein 35, Q96QK1”, the “listed as a hit” value in assay [1] was “yes”.
As to “DNA-directed RNA polymerase II subunit RPB2, P30876”, in the assay with Obg-like ATPase 1, the “listed as a hit” value was “yes”.
